Reference: patent US9783547B2, “Water soluble 4-azapodophyllotoxin analogs” (CENTRE NATIONAL DE LA RECHERCHE SCIENTIFIQUE (CNRS), priority 2014, dated 2017)

Tested on: colon 26 carcinoma
Assay: Antitumor activity in colon 26 carcinoma bearing mice
Conditions: 80.6 mg/kg i.p. (text: 80 mg/kg) days 4, 5, 11, 12, 14, 15, hydrochloride

SMILES: COc1cc(Nc2c3c(nc4cc5c(cc24)OCO5)CCCC3=O)cc(OC)c1OC.Cl [SGR307.HCl, 6,7-(Methylenedioxy)-9-(3,4,5-trimethoxyphenylamino)-3,4-dihydroacridin-1(2H)-one, hydrochloride]
- Note (activity / toxicity assessment): toxic
- Note (activity / toxicity assessment) (listed as SGR307 HCl): Toxic
